The values that follow come from the supplement of paper PMC11403291.

Sequences of proteins named here, by UniProt entry; tags and fusion partners are left off. A change or cut given only in a name is not applied to a line headed by its entry.
UniProt Q96S53: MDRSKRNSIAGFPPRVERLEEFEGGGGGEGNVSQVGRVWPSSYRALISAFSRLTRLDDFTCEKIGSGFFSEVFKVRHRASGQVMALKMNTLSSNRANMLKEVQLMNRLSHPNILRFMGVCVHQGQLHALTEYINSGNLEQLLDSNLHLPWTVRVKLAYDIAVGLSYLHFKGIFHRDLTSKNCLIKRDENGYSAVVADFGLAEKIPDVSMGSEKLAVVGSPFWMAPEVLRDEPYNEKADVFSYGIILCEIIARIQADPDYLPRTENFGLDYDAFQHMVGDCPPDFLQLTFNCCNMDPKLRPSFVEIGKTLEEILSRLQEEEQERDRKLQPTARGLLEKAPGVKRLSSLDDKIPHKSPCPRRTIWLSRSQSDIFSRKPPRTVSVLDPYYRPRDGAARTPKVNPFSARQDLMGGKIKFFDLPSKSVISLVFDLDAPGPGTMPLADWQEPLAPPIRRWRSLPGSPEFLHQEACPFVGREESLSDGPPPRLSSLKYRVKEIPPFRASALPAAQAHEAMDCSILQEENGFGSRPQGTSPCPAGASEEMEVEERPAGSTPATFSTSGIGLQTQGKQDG
UniProt P45983: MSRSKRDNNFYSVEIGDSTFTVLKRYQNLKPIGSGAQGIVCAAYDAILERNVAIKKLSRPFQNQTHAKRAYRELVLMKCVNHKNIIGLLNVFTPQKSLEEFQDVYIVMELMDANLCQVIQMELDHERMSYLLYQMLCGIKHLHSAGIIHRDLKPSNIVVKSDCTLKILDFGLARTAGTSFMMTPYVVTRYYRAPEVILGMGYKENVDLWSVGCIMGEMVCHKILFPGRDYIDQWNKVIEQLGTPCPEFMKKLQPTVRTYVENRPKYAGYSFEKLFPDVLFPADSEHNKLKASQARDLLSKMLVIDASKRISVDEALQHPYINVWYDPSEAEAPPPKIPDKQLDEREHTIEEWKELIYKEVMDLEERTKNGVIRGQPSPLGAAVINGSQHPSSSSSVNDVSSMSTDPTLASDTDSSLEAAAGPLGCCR
UniProt P08631: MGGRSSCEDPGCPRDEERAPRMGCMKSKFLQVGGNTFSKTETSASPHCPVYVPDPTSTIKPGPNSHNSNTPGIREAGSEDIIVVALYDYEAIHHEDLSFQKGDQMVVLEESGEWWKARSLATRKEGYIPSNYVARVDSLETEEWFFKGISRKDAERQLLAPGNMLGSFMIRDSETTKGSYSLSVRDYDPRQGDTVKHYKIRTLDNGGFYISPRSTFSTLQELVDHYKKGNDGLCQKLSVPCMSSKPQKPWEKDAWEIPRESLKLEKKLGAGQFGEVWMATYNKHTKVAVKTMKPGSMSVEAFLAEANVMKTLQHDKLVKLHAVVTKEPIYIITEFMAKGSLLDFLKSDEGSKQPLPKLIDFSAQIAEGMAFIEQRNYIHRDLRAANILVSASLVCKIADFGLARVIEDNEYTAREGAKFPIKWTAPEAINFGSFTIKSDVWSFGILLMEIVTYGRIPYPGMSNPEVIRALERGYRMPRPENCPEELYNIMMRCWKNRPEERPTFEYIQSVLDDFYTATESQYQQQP
UniProt O75716, whole entry: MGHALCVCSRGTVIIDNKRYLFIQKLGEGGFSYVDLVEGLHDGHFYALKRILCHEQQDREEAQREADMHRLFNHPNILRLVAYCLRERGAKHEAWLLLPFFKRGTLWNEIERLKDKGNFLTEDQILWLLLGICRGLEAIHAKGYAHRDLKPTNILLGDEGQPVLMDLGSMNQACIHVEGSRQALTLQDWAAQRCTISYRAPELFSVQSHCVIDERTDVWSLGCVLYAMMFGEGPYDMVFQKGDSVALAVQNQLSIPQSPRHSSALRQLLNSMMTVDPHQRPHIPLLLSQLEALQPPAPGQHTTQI

Bounds are passed on as bounds.

Some targets named below: TESK2 (UniProt Q96S53); MAPK8 (UniProt P45983); PRKCA (UniProt P17252); HCK (UniProt P08631); STK16 (UniProt O75716).
Test in all cases: apparent dissociation constant pKd app (kinobead competition) (-log10(M)); higher = stronger binding
In a further test the target is T1, PLK4 (UniProt O00444).
T1 sequence (whole entry): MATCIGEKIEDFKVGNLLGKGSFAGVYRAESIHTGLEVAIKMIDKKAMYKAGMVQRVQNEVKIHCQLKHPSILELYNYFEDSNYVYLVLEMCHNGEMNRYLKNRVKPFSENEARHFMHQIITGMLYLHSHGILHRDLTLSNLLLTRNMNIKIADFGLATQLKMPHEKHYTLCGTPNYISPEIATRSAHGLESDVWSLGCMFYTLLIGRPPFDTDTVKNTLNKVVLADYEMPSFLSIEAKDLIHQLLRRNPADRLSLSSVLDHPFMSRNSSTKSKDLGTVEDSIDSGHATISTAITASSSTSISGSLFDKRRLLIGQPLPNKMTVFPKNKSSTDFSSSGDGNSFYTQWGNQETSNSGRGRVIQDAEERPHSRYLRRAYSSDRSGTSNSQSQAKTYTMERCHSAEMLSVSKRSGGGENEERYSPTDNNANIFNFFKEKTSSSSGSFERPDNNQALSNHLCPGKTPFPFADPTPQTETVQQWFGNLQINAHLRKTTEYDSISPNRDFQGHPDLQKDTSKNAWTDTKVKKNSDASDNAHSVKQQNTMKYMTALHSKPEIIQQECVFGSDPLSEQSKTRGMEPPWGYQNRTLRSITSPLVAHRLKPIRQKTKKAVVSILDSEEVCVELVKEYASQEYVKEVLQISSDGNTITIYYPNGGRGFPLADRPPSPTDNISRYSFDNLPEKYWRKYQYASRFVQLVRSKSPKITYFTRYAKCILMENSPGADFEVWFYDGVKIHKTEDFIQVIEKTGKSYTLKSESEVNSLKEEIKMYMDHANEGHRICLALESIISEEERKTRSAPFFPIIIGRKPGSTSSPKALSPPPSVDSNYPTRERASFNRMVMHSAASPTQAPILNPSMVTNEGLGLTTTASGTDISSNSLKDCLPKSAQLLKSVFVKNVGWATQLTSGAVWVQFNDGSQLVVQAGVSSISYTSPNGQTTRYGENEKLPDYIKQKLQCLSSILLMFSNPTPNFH

The next test addresses T2, ULK1 (UniProt O75385).
T2 sequence (whole entry): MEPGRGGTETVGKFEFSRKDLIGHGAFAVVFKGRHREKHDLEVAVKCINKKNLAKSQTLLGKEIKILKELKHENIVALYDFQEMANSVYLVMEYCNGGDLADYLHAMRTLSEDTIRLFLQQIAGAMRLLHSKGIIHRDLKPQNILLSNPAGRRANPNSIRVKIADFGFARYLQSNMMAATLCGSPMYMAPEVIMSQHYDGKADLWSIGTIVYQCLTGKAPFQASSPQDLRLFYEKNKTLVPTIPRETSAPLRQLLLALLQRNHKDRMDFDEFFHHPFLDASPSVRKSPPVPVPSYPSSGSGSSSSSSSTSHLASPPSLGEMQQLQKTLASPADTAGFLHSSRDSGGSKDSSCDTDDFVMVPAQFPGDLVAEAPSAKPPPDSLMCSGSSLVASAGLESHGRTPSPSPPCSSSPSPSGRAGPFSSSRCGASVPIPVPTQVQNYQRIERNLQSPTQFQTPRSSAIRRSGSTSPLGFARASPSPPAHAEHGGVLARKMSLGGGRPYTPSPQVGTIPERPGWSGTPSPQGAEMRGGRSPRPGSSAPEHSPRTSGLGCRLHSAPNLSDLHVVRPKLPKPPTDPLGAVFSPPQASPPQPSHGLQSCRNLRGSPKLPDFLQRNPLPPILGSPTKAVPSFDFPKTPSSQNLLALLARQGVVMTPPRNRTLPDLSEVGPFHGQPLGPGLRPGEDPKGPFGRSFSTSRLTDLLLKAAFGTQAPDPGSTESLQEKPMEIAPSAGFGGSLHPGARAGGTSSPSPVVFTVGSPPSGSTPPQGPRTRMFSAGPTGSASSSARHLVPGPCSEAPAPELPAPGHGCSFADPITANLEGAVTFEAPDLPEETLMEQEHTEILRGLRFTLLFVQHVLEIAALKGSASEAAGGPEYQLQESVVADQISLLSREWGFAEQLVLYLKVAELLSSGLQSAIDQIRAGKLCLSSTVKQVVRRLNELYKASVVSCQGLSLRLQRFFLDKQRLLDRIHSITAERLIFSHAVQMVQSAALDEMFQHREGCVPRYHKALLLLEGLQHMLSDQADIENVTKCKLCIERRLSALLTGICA

In the next test the target is T3, PIP4K2A (UniProt P48426).
T3 sequence (whole entry): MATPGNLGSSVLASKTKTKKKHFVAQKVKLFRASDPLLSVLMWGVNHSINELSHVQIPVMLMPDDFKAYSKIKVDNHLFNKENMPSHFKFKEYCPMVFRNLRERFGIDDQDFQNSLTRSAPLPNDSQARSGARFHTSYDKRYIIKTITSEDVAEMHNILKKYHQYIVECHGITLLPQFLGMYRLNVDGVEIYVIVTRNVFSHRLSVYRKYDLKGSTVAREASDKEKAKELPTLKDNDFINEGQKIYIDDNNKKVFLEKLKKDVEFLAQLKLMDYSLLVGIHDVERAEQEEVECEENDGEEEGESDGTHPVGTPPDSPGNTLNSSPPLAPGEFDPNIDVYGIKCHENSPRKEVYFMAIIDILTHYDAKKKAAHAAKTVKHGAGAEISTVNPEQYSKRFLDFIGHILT

For `NC(=O)c1cccc2cn(-c3ccc([C@@H]4CCCNC4)cc3)nc12` [Niraparib], the “apparent dissociation constant pKd app (-log10)” value on PLK4 was less than 4.9; on TESK2, less than 4.6; on MAPK8, less than 4.9; on ULK1 it was less than 4.6; at PRKCA, less than 4.6; at HCK it was less than 4.7. Besides, the “apparent dissociation constant pKd app (-log10)” value is less than 4.7 on STK16 and less than 4.6 on PIP4K2A.
With `Cn1ncnc1[C@H]1c2n[nH]c(=O)c3cc(F)cc(c23)N[C@@H]1c1ccc(F)cc1` [Talazoparib], the “apparent dissociation constant pKd app (-log10)” value at PLK4 was less than 4.9; on TESK2, less than 4.6; on MAPK8, less than 4.9; at ULK1, less than 4.6; at PRKCA it was less than 4.6; at HCK, less than 4.7. Also, the entries for the “apparent dissociation constant pKd app (-log10)” value on STK16 and at PIP4K2A were less than 4.7 and less than 4.6, respectively.
On to `O=C(c1cc(Cc2n[nH]c(=O)c3ccccc23)ccc1F)N1CCN(C(=O)C2CC2)CC1` [Olaparib], for which the “apparent dissociation constant pKd app (-log10)” value is less than 4.9 on PLK4; less than 4.6 at TESK2; less than 4.9 at MAPK8; less than 4.6 at ULK1; less than 4.6 on PRKCA; less than 4.7 on HCK. The entries for the “apparent dissociation constant pKd app (-log10)” value on STK16 and at PIP4K2A were less than 4.7 and less than 4.6, respectively.
